Source: patent US20080312301A1, “Substituted N-Benzo[D]Isoxazol-3-Yl-Amine Compounds as Inhibitors of Mglur5, Serotonin (5-Ht) and Noradrenaline Receptors, and Uses Thereof” (Gruenenthal GmbH, priority 2005, published 2008)

Amino acid sequences for entries named in this document (tags omitted). Residues count along the entry.
UniProt I3LUI7, 19-1212: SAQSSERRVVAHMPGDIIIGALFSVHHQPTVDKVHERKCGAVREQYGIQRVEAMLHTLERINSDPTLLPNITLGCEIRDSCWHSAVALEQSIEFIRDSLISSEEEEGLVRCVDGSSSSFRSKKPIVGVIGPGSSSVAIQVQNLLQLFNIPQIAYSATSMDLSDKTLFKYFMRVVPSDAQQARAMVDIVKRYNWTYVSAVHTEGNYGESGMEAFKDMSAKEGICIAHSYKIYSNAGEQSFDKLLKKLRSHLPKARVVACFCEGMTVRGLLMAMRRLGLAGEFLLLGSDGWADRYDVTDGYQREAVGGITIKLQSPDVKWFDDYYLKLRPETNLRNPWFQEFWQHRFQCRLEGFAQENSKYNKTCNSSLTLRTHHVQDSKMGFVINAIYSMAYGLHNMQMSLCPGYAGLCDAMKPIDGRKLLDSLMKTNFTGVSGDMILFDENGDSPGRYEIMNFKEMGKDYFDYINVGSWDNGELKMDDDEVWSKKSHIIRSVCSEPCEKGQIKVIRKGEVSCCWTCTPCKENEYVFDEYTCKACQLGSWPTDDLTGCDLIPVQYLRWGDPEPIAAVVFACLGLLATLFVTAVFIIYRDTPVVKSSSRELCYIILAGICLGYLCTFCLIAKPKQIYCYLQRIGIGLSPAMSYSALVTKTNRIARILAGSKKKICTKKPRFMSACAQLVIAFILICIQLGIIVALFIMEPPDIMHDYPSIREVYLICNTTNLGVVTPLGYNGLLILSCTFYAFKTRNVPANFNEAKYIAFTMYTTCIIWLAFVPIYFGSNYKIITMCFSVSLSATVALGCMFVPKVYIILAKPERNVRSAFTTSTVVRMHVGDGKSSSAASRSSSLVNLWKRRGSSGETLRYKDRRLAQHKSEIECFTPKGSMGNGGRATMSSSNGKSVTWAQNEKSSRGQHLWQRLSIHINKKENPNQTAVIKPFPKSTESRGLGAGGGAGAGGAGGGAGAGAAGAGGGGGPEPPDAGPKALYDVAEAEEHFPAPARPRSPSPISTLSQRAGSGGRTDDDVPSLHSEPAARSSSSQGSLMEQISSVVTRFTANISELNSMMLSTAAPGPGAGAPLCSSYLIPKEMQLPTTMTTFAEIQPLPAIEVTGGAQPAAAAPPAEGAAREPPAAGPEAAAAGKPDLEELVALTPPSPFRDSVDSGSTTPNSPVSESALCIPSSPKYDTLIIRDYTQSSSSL

Molecular target: T1, mGluR5 receptor (Sus scrofa, UniProt I3LUI7)
T1 construct: 450 μg of protein from brain homogenate are incubated with 5 nM^3[H]-MPEP; from tissue; host or cells: pig brain hemispheres without medulla, cerebellum and pons
Assay: Affinity for the mGluR5 receptor: displacement of 3[H]-MPEP binding in pig brain homogenate
Settings: 10 μM compound, 5 nM 3[H]-MPEP
Experimental: II. Method for Determining the Affinity for the mGluR5 Receptor
In each case 450 μg of protein from brain homogenate are incubated with 5 nM^3[H]-MPEP (Tocris, order No. R1212) (MPEP=2-methyl-6-[…]) and the compounds to be investigated (10 μM in the assay) in buffer (as above) in 250 μl incubation mixtures in 96-well microtiter plates at room temperature for 60 min.
The filter plates were then dried at 55° C. for 60 min.

In the case of “cyclohexane-[4-(2,2,2-trifluoroethoxy)benzo[d]isoxazol-3-yl]carboxamide [Example 165]”, the “mGluR5 receptor inhibition of the 3[H]-MPEP binding in % (10 μM)” value is reported as 38.04%.
